The source of these data is PMC6603201.

Amino acid sequences for entries named in this document (tags omitted). Residues count along the entry.
UniProt P30882, 24-91: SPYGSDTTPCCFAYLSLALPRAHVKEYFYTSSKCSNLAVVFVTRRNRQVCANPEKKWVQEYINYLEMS

Test in all cases: SPR; CBP-FLAG immobilised by amine coupling on a CM5 chip (300-400 RU, 10 mM sodium acetate pH 4.5); serial dilutions of mouse chemokine flowed in triplicate for 3 min, 10 min dissociation; 25°C; HBS-EP buffer (20 mM HEPES, 150 mM NaCl, 3.4 mM EDTA, 0.005% Polysorbate 20, pH 7.4); Biacore X100; global fit with a 1:1 binding model
A general note: Surface plasmon resonance follows binding to a sensor surface in real time, without labels.

Experiment [1] deals with PVNZ112.0-CBP (Parapoxvirus of red deer in New Zealand (PVNZ), strain RD86).
In experiment [2] the target is PVNZ112.3-CBP (Parapoxvirus of red deer in New Zealand (PVNZ), strain RD86).
For experiment [3], the target named is PVNZ112.6-CBP (Parapoxvirus of red deer in New Zealand (PVNZ), strain RD86).

For orientation: Kd means the free concentration of one partner at which half of the binding sites on the other are occupied at equilibrium, for simple one-to-one binding. For orientation: koff means the first-order rate constant of dissociation. Low values mean slow dissociation, high ones fast dissociation. Usually kon stands for the rate constant with which the complex forms. The low end stands for slow association, the high end for fast association. As to “recombinant mouse CCL5 (from UniProt P30882 24-91) (ligand)”, the Kd in experiment [1] is over 230 nM. In experiment [2], this substance showed an equilibrium dissociation constant (Kd) of 31.5 nM, an off-rate (koff) of 0.052 s⁻¹ and an on-rate (kon) of 1.65e+06 M⁻¹ s⁻¹. In experiment [3], this substance returned a dissociation constant (Kd) of 1.74 nM, an off-rate constant (koff) of 0.0479 s⁻¹ and a kon of 2.75e+07 M⁻¹ s⁻¹.
